Molecular target: human V1a receptor (Homo sapiens, UniProt P37288)
Experiment: Human vasopressin V1a receptor binding assay
Conditions: read-out: V1a Ki; hV1a CHO cell line, competition with 1 nM 3H-AVP

The chains behind the UniProt entries cited, without tags or fusion partners.
UniProt P37288, whole entry: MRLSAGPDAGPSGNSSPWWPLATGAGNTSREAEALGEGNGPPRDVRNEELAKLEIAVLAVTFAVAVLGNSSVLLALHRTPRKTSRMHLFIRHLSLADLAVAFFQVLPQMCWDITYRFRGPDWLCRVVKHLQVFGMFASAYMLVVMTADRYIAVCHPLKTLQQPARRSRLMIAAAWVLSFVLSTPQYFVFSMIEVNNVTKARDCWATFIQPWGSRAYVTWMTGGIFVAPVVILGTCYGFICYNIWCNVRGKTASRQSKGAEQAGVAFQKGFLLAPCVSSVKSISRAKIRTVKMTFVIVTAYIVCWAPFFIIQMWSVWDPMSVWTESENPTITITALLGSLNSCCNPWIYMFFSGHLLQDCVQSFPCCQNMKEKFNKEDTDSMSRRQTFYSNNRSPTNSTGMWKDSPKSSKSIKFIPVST

`CN(Cc1cccc(C(F)(F)F)c1)C(=O)[C@@H](CC(=O)N1CCC(N2CCCCC2)CC1)N1C(=O)[C@@H](N2C(=O)OC[C@@H]2c2ccccc2)[C@H]1/C=C/c1ccccc1` [Example 225, 2(R)-[[4-(Piperidinyl)piperidinyl]carbonylmethyl]-2-[3(S)-(4(S)-phenyloxazolidin-2-on-3-yl)-4(R)-(2-styryl)azetidin-2-on-1-yl]acetic acid N-methyl-N-(3-trifluoromethylbenzyl)amide] was tested, and the Ki was 1.36 nM.

— patent publication US11628160B2, “Compositions and methods for treating brain injury” (Azevan Pharmaceuticals, Inc., priority 2017, dated 2023)
